{"source": "paper PMC3563628", "about": "“Prevalence, Specificity and Determinants of Lipid-Interacting PDZ Domains from an In-Cell Screen and In Vitro Binding Experiments” (PLoS ONE, 2013)", "tested_on": "eYFP-S1PDZ1-CASK in MCF-7 cells", "assay": "Pharmacological treatment, plasma membrane localization of eYFP-S1PDZ1-CASK", "format": "cell-based", "conditions": "ionomycin 10 µM, PAO 100 µM, wortmannin 500 nM", "data": [{"smiles": "O=[As]c1ccccc1", "note": "(stereo not shown)", "values": [{"measurement": "plasma membrane localization of eYFP-S1PDZ1-CASK upon treatment", "value": "released"}]}]}
